# Laboratory results taken from PubChem BioAssay AID540364 (The Scripps Research Institute Molecular Screening Center, 2011).
# The list shows a part of the results, in another mix than the full data. Active and inactive are the calls of the source.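 Rule for the calls: active = activation above the average of all compounds screened plus 3 SD, cutoff fixed separately per campaign (cut at about 7.5% in these data); inactive = the rest.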
# Assay: FXN promoter activators, primary screen, cell-based, luciferase luminescence, HEK293 lucGAA850 (AID 540364);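 note: 0% = DMSO wells and 100% = 10 µM SAHA wells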
# Conditions: HEK293 lucGAA850 FXN promoter luciferase reporter, 24 h; at 6 µM; active compounds read high; percent of 10 µM SAHA response
row,Structure (SMILES),activation
1,CN1CCC(Nc2ccc(Cl)cc2)CC1,inactive: 1.71%
2,CCC(CO)(C(=O)OC1CN2CCC1CC2)c1ccccc1 (stereo not given),inactive: 2%
3,COc1cccc(C(=O)N(c2cc(C)cc(C)c2)C2CCN(C(=O)OC(C)(C)C)CC2)c1,inactive: -0.59%
4,COc1cc(OC)cc(C(=O)NCC2(N3CCOCC3)CCCCC2)c1,inactive: 0.27%
5,CCCOc1ccc(C(=O)NCC2(N(C)C)CCCCC2)cc1,inactive: -0.99%
6,O=C(O)C1(Nc2ccccc2)CCN(Cc2ccccc2)CC1,inactive: 2.76%
7,CC(C)(C)OC(=O)N1CCC(Nc2ccccc2)CC1,inactive: 5.28%
8,CN1CCC(Nc2ccc(F)c(Cl)c2)CC1,inactive: -0.28%
9,CCOc1ncccc1C(=O)NCC1(N2CCOCC2)CCCCC1,inactive: 2.45%
10,Cn1c(=O)[nH]cc(N(CCCl)CCCl)c1=O,inactive: -1.19%
11,CN(C)c1ccc(C(=O)NCC2(N3CCCCC3)CCCCC2)cc1,inactive: 2.37%
12,O=C(NCC1(N2CCCCC2)CCCCC1)c1ccco1,inactive: -0.02%
13,CCN1CCC(Nc2cccc(F)c2)CC1,inactive: 1.56%
14,Cc1ccccc1NC1(C#N)CCN(Cc2ccccc2)CC1,inactive: -1.76%
15,Cc1ccc(NC2(C#N)CCN(Cc3ccccc3)CC2)cc1,inactive: 0.8%
16,Fc1ccccc1NC1CCN(Cc2ccccc2)CC1,inactive: -1.36%
17,Cc1ccc(C(=O)NCC2(N3CCCCC3)CCCCC2)o1,inactive: 1.49%
18,COc1cc(OC)cc(C(=O)NCC2(N3CCCCC3)CCCCC2)c1,inactive: 0.83%
19,CC(=O)N(c1ccccc1)C1CCNCC1,inactive: 2.17%
20,CCCN1CCC(Nc2cc(OC)cc(OC)c2)CC1,inactive: 0.61%
21,Cc1cc(N(CCCl)CCCl)ccc1C=O,inactive: -3.62%
22,c1ccc(CN2CCC(Nc3ccccc3)CC2)cc1,inactive: -0.88%
23,CN(C)C1(CNC(=O)c2cccc(C#N)c2)CCCCC1,inactive: 1.2%
24,CC(C)(C)OC(=O)N1CCC(N(C(=O)c2ccccc2)c2ccc(Cl)cc2)CC1,inactive: -1.8%
25,N#Cc1ccc(C(=O)NCC2(N3CCCCC3)CCCCC2)cc1,inactive: 2.17%

row,Structure (SMILES),activation
1,O=C(OC1CN2CCC1CC2)C1c2ccccc2C=Cc2ccccc21 (stereo not given),inactive: -0.99%
2,N/C(=N\O)c1c(N)no[n+]1[O-],inactive: -1.36%
3,CCOC(=O)N1CCC(Nc2ccc(C)cc2)CC1,inactive: 1.81%
4,COc1ccc(C(=O)NCC2(N3CCOCC3)CCCCC2)cc1OC,inactive: 3.09%
5,O=C(NCC1(N2CCOCC2)CCCCC1)c1cc(Br)ccc1Cl,inactive: -1.61%
6,COc1cc(C(=O)NCC2(N3CCOCC3)CCCCC2)cc(OC)c1C,inactive: 0.92%
7,CCCOc1ccc(C(=O)NCC2(N(C)C)CCCCC2)cc1OC,inactive: 0.71%
8,Cc1ccc(C(=O)NCC2(N(C)C)CCCCC2)o1,inactive: 1.42%
9,O=C(NCC1(N2CCCCC2)CCCCC1)c1cncc(Br)c1,inactive: 1.99%
10,CN1CCC(Nc2cccc(F)c2)CC1,inactive: 3.56%
11,O=C(NCC1(N2CCOCC2)CCCCC1)c1cc(F)c(F)cc1Cl,inactive: 0%
12,COc1cc(OC)c(C(=O)NCC2(N(C)C)CCCCC2)cc1OC,inactive: 0.63%
13,CN(C)c1cccc(C(=O)NCC2(N3CCCCC3)CCCCC2)c1,inactive: 2.76%
14,COc1ccc(CN(CCCl)CCCl)cc1Cl,inactive: 2.52%
15,CC(C)c1ccc(NC2CCN(C(=O)OC(C)(C)C)CC2)cc1,inactive: 1.89%
16,COc1ccc(NC2CCN(C(=O)OC(C)(C)C)CC2)cc1,inactive: -0.28%
17,CC(C)c1ccc(C(=O)NCC2(N3CCOCC3)CCCCC2)cc1,inactive: 1.86%
18,CN1CCN(CCOC(=O)C(O)(c2ccccc2)c2ccccc2)CC1,inactive: 0.25%
19,O=C(NCC1(N2CCOCC2)CCCCC1)c1cc(=O)[nH]c2ccccc12,inactive: 1.45%
20,COc1cc(C(=O)NCC2(N3CCCCC3)CCCCC2)ccc1OC(F)F,inactive: 0.78%
21,O=C(NCC1(N2CCCCC2)CCCCC1)c1cccc(C(F)(F)F)c1,inactive: -0.29%
22,O=C(NCC1(N2CCCCC2)CCCCC1)c1cccc([N+](=O)[O-])c1,inactive: 1.8%
23,CSc1ccc(C(=O)NCC2(N3CCOCC3)CCCCC2)cc1,inactive: 1.33%
24,N#CC1(Nc2ccccc2)CCN(CCc2ccccc2)CC1,inactive: -0.61%
25,CCN1CCC(Nc2ccc(Cl)cc2)CC1,inactive: 0.48%

row,Structure (SMILES),activation
1,O=C(NCC1(N2CCCCC2)CCCCC1)c1ccc(OC(F)F)cc1,inactive: 2.34%
2,COc1cc(C(=O)NCC2(N(C)C)CCCCC2)ccc1OC(F)F,inactive: 0.07%
3,CCOC(=O)N1CCC(Nc2cccc(C)c2)CC1,inactive: -0.08%
4,CCOC(=O)N1CCC(Nc2ccc(F)cc2)CC1,inactive: 0.05%
5,COc1ccc(NC2CCN(CCc3ccccc3)CC2)c(OC)c1,inactive: 0.49%
6,O=C(NCC1(N2CCCCC2)CCCCC1)c1ccc(F)cc1,inactive: 1.69%
7,CCCCOc1ccc(C(=O)NCC2(N3CCOCC3)CCCCC2)cc1,inactive: 2.85%
8,O=P1(N(CCCl)CCCl)SCCCS1,inactive: 0.56%
9,CCOc1ccc(C)cc1CN(CCCl)CCCl,inactive: 0.46%
10,O=C1CCN(Cc2ccccc2)CC1,inactive: -0.3%
11,CCOC(=O)N1CCC(Nc2ccc(OC)cc2)CC1,inactive: -1.16%
12,COc1ccc(Cl)cc1C(=O)NCC1(N2CCOCC2)CCCCC1,inactive: -0.76%
13,O=C(OC1CN2CCC1CC2)C1c2ccccc2Oc2ccccc21 (stereo not given),inactive: -3.1%
14,O=C(NCC1(N2CCCCC2)CCCCC1)c1ccc(Cl)s1,inactive: 1.66%
15,N#CC1(Nc2ccccc2)CCN(Cc2ccccc2)CC1,inactive: 1.55%
16,O=C(NCC1(N2CCOCC2)CCCCC1)c1cc2ccccc2o1,inactive: 0.84%
17,Cc1cc(C)cc(N(C(=O)c2ccccc2)C2CCN(C(=O)OC(C)(C)C)CC2)c1,inactive: -3.05%
18,O=C(NCC1(N2CCCCC2)CCCCC1)c1ccc(Cl)nc1,inactive: -0.83%
19,Cc1cccc(NC2(C#N)CCN(Cc3ccccc3)CC2)c1,inactive: -1.28%
20,CSc1ccccc1C(=O)NCC1(N2CCCCC2)CCCCC1,inactive: 1.12%
21,O=C(NCC1(N2CCCCC2)CCCCC1)c1cccs1,inactive: 0.4%
22,O=C(NCC1(N2CCCCC2)CCCCC1)c1ccc(=O)[nH]c1,inactive: -2.57%
23,COc1ccc(C(=O)NCC2(N3CCCCC3)CCCCC2)c(OC)c1OC,inactive: 1.14%
24,CC(C)(C)OC(=O)N1CCC(N(C(=O)c2ccccc2)c2ccc(F)cc2)CC1,inactive: 0.78%
25,COc1ccc(C(=O)NCC2(N3CCCCC3)CCCCC2)cc1,inactive: 0.44%
